Measurements taken from ChEMBL document CHEMBL5375987, “Structural Fusion of Natural and Synthetic Ligand Features Boosts RXR Agonist Potency” (J Med Chem, 2023).
Activity calls are given as the source filed them.

The chains behind the UniProt entries cited, without tags or fusion partners. Where a name states a change or a piece, a line headed by the entry shows the natural chain unless it says otherwise.
UniProt P43354, whole entry: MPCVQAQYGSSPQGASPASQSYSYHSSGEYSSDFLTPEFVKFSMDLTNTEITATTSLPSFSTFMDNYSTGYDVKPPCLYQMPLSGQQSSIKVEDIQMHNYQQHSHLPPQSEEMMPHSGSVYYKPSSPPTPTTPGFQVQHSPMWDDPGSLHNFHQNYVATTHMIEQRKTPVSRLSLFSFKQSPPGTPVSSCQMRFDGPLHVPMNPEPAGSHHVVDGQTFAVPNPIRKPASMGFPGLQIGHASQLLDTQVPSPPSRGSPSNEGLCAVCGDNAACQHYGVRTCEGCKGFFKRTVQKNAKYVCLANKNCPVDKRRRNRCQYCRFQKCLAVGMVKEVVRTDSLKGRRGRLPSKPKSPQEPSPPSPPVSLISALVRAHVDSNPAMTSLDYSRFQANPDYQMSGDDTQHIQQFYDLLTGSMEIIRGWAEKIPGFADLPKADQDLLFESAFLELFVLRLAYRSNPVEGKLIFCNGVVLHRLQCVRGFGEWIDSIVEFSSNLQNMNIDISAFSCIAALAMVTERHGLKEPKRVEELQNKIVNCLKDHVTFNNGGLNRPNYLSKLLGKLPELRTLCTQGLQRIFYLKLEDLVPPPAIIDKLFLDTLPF
UniProt P55055, whole entry: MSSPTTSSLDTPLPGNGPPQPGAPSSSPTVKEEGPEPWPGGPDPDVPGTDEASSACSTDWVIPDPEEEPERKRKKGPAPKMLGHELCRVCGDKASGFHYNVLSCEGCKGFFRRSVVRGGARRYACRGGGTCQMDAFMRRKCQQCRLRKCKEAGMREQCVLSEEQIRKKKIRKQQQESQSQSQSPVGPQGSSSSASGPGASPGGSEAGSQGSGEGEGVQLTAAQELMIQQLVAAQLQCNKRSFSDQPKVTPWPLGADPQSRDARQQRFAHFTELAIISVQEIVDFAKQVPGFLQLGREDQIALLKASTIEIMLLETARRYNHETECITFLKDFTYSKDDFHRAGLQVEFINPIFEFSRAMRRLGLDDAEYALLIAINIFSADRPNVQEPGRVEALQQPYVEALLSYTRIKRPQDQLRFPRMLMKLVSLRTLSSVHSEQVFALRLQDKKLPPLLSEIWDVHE
UniProt Q92570: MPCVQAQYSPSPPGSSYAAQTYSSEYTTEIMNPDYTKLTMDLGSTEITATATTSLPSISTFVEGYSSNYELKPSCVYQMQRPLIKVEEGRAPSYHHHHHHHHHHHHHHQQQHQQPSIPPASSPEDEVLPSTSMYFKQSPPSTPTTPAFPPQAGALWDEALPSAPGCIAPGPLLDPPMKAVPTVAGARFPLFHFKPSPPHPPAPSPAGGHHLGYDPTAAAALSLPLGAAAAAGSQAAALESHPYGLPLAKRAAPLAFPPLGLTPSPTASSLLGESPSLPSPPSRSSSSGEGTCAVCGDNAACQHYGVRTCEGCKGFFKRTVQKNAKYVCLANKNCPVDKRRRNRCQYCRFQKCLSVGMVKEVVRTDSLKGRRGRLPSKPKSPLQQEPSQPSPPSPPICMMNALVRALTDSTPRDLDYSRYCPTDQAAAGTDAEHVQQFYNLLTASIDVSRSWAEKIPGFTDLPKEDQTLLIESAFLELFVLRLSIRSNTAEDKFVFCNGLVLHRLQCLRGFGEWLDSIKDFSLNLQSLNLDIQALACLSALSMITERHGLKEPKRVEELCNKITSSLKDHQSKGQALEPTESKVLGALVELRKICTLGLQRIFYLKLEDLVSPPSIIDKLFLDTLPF
UniProt P10276, whole entry: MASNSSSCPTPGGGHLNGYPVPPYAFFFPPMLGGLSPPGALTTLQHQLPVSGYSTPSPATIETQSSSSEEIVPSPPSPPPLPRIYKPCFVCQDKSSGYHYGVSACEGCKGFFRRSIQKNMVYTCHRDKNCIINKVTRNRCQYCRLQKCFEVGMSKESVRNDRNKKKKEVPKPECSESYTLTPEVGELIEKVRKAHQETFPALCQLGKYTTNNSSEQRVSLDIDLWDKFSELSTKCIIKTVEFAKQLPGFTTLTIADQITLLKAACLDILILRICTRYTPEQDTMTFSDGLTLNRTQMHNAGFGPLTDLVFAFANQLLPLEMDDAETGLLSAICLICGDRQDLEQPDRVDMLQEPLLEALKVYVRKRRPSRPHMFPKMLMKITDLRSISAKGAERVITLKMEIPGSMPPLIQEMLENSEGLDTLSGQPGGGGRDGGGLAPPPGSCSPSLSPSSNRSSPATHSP
UniProt P10826, whole entry: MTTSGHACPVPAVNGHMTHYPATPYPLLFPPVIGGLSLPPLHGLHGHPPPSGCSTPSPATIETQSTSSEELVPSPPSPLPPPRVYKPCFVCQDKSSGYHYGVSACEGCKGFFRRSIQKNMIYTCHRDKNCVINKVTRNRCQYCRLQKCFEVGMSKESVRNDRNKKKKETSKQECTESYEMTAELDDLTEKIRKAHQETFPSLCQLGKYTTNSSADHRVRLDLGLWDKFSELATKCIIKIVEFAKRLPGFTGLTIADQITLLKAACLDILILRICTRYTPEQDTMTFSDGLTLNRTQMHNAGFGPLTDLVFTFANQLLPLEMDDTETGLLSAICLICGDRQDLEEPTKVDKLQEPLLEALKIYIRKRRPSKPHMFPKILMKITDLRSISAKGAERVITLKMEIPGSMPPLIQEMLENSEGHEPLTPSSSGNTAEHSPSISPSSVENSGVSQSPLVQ
UniProt P51449: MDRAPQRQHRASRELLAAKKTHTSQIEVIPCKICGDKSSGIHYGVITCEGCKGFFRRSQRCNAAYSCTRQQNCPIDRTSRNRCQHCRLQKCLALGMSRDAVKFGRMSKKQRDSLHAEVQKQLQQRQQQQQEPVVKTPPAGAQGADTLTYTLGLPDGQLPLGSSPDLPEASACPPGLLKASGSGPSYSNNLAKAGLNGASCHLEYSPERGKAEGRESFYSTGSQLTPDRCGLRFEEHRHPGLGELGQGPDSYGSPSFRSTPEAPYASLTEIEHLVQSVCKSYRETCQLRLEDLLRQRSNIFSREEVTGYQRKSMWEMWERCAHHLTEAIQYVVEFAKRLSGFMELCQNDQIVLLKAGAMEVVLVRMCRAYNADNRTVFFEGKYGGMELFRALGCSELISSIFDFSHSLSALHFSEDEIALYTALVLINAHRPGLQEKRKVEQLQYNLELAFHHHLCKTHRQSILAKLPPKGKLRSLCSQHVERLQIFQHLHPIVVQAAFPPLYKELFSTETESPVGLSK
UniProt Q13285, whole entry: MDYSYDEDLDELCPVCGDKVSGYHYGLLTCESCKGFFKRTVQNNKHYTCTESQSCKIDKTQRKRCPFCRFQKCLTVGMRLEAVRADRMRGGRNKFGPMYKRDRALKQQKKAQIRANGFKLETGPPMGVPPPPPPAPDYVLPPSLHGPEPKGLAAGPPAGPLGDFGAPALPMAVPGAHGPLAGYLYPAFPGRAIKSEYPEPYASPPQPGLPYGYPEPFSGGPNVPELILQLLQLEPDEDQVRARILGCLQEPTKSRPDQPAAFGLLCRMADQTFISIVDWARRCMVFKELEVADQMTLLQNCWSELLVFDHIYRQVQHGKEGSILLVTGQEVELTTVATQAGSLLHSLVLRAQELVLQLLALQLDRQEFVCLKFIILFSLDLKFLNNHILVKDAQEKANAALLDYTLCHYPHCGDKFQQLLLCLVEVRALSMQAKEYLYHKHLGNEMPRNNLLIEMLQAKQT
UniProt P37231: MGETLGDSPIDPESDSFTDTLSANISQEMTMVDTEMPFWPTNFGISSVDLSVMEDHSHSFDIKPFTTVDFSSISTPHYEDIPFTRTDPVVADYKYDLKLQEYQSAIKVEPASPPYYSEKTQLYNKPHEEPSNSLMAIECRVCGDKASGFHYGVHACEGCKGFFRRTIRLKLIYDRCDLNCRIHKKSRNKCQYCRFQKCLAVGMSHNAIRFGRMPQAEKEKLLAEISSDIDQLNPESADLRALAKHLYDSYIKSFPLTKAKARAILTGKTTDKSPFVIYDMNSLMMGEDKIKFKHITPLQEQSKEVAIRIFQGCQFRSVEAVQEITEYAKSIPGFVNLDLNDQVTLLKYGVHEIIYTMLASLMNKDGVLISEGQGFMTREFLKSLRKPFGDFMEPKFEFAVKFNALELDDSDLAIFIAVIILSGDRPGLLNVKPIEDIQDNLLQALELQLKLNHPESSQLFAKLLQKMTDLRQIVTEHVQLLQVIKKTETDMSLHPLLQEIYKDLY

Key:
[1] = target: Nuclear receptor subfamily 4 group A member 2 (Homo sapiens) (UniProt P43354); assay: Inverse agonist activity at NR4A2 (unknown origin) at 1 uM
[2] = target: Oxysterols receptor LXR-beta (Homo sapiens) (UniProt P55055); assay: Antagonist activity at NR1H2 (unknown origin) at 1 uM
[3] = target: Nuclear receptor subfamily 4 group A member 3 (Homo sapiens) (UniProt Q92570); assay: Agonist activity at NR4A3 (unknown origin) at 1 uM
[4] = target: T1, Nuclear receptor subfamily 2 group C member 2 (Homo sapiens) (UniProt P49116); assay: Agonist activity at NR2C2 (unknown origin) at 1 uM
T1 sequence (whole entry): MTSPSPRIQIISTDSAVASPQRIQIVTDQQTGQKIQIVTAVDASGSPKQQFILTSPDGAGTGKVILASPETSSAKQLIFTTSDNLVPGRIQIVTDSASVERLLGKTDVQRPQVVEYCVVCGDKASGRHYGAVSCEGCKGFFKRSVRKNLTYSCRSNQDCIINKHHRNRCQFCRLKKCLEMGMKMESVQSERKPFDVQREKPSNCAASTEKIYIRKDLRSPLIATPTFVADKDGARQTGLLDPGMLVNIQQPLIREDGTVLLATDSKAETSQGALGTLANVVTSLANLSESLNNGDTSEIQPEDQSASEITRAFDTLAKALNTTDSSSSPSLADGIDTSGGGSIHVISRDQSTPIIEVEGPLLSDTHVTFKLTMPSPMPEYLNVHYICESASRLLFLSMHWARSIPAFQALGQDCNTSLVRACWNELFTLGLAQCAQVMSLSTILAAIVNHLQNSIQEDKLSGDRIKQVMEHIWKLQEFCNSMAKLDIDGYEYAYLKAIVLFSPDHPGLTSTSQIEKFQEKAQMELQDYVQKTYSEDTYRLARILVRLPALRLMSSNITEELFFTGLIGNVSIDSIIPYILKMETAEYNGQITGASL

[5] = target: Retinoic acid receptor alpha (Homo sapiens) (UniProt P10276); assay: Antagonist activity at NR1B1 (unknown origin) at 1 uM
[6] = target: Retinoic acid receptor beta (Homo sapiens) (UniProt P10826); assay: Agonist activity at NR1B2 (unknown origin) at 1 uM
[7] = target: Oxysterols receptor LXR-beta (Homo sapiens) (UniProt P55055); assay: Agonist activity at NR1H2 (unknown origin) at 1 uM
[8] = target: Nuclear receptor ROR-gamma (Homo sapiens) (UniProt P51449); assay: Inverse agonist activity at NR1F3 (unknown origin) at 1 uM
[9] = target: T2, Peroxisome proliferator-activated receptor alpha (Homo sapiens) (UniProt Q07869); assay: Antagonist activity at NR1C1 (unknown origin) at 1 uM
T2 sequence (whole entry): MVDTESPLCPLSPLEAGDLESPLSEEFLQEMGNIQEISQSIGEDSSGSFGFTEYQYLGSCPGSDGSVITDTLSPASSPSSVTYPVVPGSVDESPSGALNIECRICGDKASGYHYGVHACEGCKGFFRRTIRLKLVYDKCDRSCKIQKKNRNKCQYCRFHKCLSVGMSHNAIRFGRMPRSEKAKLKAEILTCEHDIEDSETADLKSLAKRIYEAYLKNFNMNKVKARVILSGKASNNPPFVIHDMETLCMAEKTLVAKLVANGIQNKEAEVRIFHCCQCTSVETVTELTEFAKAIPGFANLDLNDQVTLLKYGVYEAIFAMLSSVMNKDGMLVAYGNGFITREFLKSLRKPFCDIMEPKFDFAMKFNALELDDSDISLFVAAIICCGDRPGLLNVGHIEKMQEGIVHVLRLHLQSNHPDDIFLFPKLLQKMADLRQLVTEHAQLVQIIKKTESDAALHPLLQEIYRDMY

[10] = target: T3, Thyroid hormone receptor alpha (Homo sapiens) (UniProt P10827); assay: Inverse agonist activity at NR1A1 (unknown origin) at 1 uM
T3 sequence (whole entry): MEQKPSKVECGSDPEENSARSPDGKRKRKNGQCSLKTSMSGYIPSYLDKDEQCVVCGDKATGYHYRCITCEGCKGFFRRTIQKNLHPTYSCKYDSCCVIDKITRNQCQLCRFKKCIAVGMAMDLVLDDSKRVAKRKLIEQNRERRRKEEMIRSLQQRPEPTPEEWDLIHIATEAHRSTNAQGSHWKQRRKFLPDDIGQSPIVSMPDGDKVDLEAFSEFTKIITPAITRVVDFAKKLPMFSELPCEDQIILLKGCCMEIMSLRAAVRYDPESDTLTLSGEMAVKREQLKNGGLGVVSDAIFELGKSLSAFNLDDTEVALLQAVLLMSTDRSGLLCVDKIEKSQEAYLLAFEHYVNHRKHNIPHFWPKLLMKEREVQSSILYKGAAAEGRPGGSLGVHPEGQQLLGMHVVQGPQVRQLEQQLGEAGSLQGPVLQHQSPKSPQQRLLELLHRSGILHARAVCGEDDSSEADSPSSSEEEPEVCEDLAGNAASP

[11] = target: T4, Vitamin D3 receptor (Homo sapiens) (UniProt P11473); assay: Inverse agonist activity at NR1I1 (unknown origin) at 1 uM
T4 sequence (whole entry): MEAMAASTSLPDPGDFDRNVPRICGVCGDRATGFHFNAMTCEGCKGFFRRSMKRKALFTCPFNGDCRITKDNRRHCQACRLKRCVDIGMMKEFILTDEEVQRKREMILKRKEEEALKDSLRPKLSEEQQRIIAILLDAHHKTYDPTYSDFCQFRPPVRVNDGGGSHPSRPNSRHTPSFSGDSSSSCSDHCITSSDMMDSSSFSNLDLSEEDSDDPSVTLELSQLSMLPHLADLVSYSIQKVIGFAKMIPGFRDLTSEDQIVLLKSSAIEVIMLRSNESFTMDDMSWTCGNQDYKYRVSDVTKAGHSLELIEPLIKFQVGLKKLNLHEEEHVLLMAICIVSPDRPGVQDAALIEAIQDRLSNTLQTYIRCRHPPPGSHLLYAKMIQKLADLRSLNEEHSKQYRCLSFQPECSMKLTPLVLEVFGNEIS

[12] = target: Steroidogenic factor 1 (Homo sapiens) (UniProt Q13285); assay: Inverse agonist activity at NR5A1 (unknown origin) at 1 uM
[13] = target: Peroxisome proliferator-activated receptor gamma (Homo sapiens) (UniProt P37231); assay: Agonist activity at NR1C3 (unknown origin) at 1 uM
[14] = target: Nuclear receptor ROR-gamma (Homo sapiens) (UniProt P51449); assay: Antagonist activity at NR1F3 (unknown origin) at 1 uM

Measured: Activity

O=C(O)[C@@H]1C[C@H]1c1nc(-c2ccccc2)c(-c2cc(C(F)(F)F)cc(C(F)(F)F)c2)o1 (racemic)
inactive: all assays above
